Shown are actives, neighbours in structure and some others; about 4.2% of the full set was active somewhere.
MC4R barr agon – human MC4R agonism via beta-arrestin; hit rate 0.98% among 360,000; activation, % at 8.9 µM; U2OS MC4R beta-arrestin complementation, luminescence; percent of melanotan II response, DMSO zero;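 active = activation above a per-plate cutoff, the mean activation of sample wells on that plate plus 3 SD, cut at about 8% in these data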
Yeast UUG start – modulators of yeast start codon fidelity, primary screen, whole organism, S. cerevisiae, single point, plate reader | activity score, % at 18.7 µM | 350,000 tested, 0.13% active | S. cerevisiae UUG-firefly luciferase reporter, luminescence/redox ratio;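 active means replicate mean at a twofold rise or more, about +100% in these data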;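 further: firefly luciferase made from a UUG start codon reports start codon fidelity; reporter light over untreated wells divided by growth signal over untreated wells; some hits fall short of that in this replicate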
ALR H2O2 inh – human ALR oxidase inhibition via reduced H2O2; P55789; 290,000 tested, 3.8% active; inhibition, % (no concentration beside the values); purified ALR, DTT oxidation, H2O2 HRP-luminol luminescence; AID 485317;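 active = mean and each replicate at 75% or more; inconclusive = only one of the two met; inactive = neither met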;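 note: stock transfer was 7.5 nL into about 7.5 µL; 0% = neutral wells and 100% = wells with inactivated enzyme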
MC4R antag cAMP – antagonists of human melanocortin 4 receptor (MC4R). inhibition, % at 6.5 µM. AID 540295. MC4R-expressing cells, MTII-stimulated cAMP, LANCE TR-FRET. hit rate 0.48% among 360,000;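 active = inhibition above its plate's cutoff, the mean of tested wells on that plate plus 3 SD, cut at about 29% in these data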;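 also: 0% = Melanotan II alone and 100% = Melanotan II plus saturating MCL0020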
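System: U2OS-MC4R stable cell line; Technique: Eu-cAMP/anti-cAMP TR-FRET, emission 671 nm; Repeats: single well per compound; Also added: Melanotan II; Dosing: one concentration, 6.5 µM nominal; Schedule: 30-min compound, 1-h challenge, 1-h detection, room temperature.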
NALP1 inh – blocks the NALP1 inflammasome reconstituted in yeast | S. cerevisiae NALP1/ASC/caspase-1 growth, X-gal OD620, 72 h | inhibition, % at 10 µM | hit rate 0.61% among 280,000; in the data active = inhibition mostly above about 24%, no sharp cut-off; inactive = mostly below about 32%
HDAC3 inhib – human HDAC3 inhibition; inhibition, % at 8.3 µM; recombinant HDAC3, fluorogenic peptide/trypsin coupled, fluorescence; O15379; hit rate 0.15% among 320,000; in the data active = inhibition above about 26%, passing the limit was not always enough; inconclusive = no clear call, values can overlap the other calls
Active calls of the source: *; ? = inconclusive; . = no result.

item | MC4R barr agon | Yeast UUG start | ALR H2O2 inh | MC4R antag cAMP | NALP1 inh | HDAC3 inhib | canonical_smiles
1 | -2 | -8 | -1 | -3 | 27* | 0 | CCOc1ccccc1NC(=O)CSc1ccccc1
2 | 0 | -17 | 98* | 5 | -4 | 4 | CCOc1ccccc1NC(=S)N1CCN(c2ccccc2)CC1
3 | . | -14 | . | . | . | . | CCCNC(=O)N(C)C[C@H]1Oc2ncc(C#Cc3ccncc3)cc2C(=O)N([C@H](C)CO)C[C@@H]1C
4 | -2 | . | 99* | 10 | -5 | 6 | Cc1cccc(NC(=O)CSc2c3c(nc4ccccc24)CCC3)n1
5 | 0 | -14 | 90* | 10 | 10 | 6 | COc1cccc(NC(=O)CSc2ncnc3c2cnn3Cc2ccccc2)c1
6 | -3 | . | 99* | 19 | 25 | -4 | COc1cccc(NC(=O)CSc2c3c(nc4ccccc24)CCCC3)c1
7 | 1 | -12 | -14 | -3 | 4 | -1 | CCn1c(SCC(=O)Nc2cccc(OC)c2)nc2ccccc2c1=O
8 | 4 | -28 | 37 | 22 | -10 | -4 | CCC(C)NC(=O)CSc1c2c(nc3ccccc13)CCCC2 (stereo not given)
9 | . | 9 | . | . | . | . | CCC(=O)N[C@@H]1C=C[C@H](CC(=O)NCc2cc(F)cc(F)c2)O[C@H]1CO
10 | . | 2 | . | . | . | . | COCc1cn(CC[C@@H]2CC[C@H](NC(=O)Nc3ccc(OC)cc3)[C@@H](CO)O2)nn1
11 | -1 | -14 | 99* | -2 | 8 | 2 | Cc1ccc(CN2CCN(c3cccc4[nH]ccc34)CC2)cc1
12 | -2 | . | 97* | 10 | -20 | 2 | O=C(c1ccc(Cl)cc1)N1CCN(c2cccc3[nH]ccc23)CC1
13 | -1 | -18 | 15 | 8 | -4 | 2 | O=C(c1ccc(Cl)cc1)N1CCN(c2ccc(F)cc2)CC1
14 | . | 0 | . | . | . | . | CCC(=O)N1C[C@@H](C)[C@H](OC)CN(C)C(=O)c2cc(NC(=O)C3CC3)ccc2OC[C@@H]1C
15 | 0 | 5 | 94* | 4 | -17 | 0 | CN(CC(=O)NCc1cccs1)S(=O)(=O)c1cccc2cccnc12
16 | -1 | -7 | ? | -2 | 37* | 6 | CN(CC(=O)Nc1ccc(Cl)cc1)S(=O)(=O)c1cccc2cccnc12
17 | -1 | 1 | -5 | -2 | 10 | 2 | CN(CC(=O)Nc1ccc(F)c(F)c1)S(=O)(=O)c1cccc2cccnc12
18 | -1 | -3 | 9 | 2 | 1 | 0 | CN(C)c1ccc(CNC(=O)CN(C)S(=O)(=O)c2cccc3cccnc23)cc1
19 | . | 9 | . | . | . | . | CC(=O)N(C)C[C@@H]1Oc2ncc(C#Cc3ccncc3)cc2C(=O)N([C@@H](C)CO)C[C@H]1C
20 | . | 23 | . | . | . | . | CN1C(=O)c2cc(NC(=O)c3ccc(F)cc3)ccc2OC[C@@H]2O[C@H](CC(=O)NC3CCC3)CC[C@H]21
21 | . | -7 | . | . | . | . | C[C@H](CO)N1C[C@H](C)[C@H](CN(C)C(=O)Nc2ccc(F)cc2)Oc2ccc(NC(=O)Nc3ccccc3)cc2C1=O
22 | 0 | -14 | 99* | 6 | . | 77* | Cc1cc(Cl)ccc1OCCCC(=O)NO
23 | -2 | -21 | . | 5 | 22 | 14 | Cc1cc(Cl)ccc1OCCCC(N)=O
24 | . | 12 | . | . | . | . | C[C@@H]1CN([C@@H](C)CO)C(=O)Cc2cc(NC(=O)C3CC3)ccc2O[C@H]1CN(C)S(=O)(=O)c1cccs1

Three consecutive records from above:
item | MC4R barr agon | Yeast UUG start | ALR H2O2 inh | MC4R antag cAMP | NALP1 inh | HDAC3 inhib | canonical_smiles
22 | 0 | -14 | 99* | 6 | . | 77* | Cc1cc(Cl)ccc1OCCCC(=O)NO
23 | -2 | -21 | . | 5 | 22 | 14 | Cc1cc(Cl)ccc1OCCCC(N)=O
24 | . | 12 | . | . | . | . | C[C@@H]1CN([C@@H](C)CO)C(=O)Cc2cc(NC(=O)C3CC3)ccc2O[C@H]1CN(C)S(=O)(=O)c1cccs1

The results go on.
item | MC4R barr agon | Yeast UUG start | ALR H2O2 inh | MC4R antag cAMP | NALP1 inh | HDAC3 inhib | canonical_smiles
25 | -1 | -13 | -6 | 30* | 0 | 5 | CCOC(=O)Cn1c(=O)oc2cc(S(=O)(=O)N3CCCc4ccccc43)ccc21
26 | 0 | -12 | 2 | 25 | 27 | -4 | CCOC(=O)Cn1c(=O)oc2cc(S(=O)(=O)N3CCn4c3nc3ccccc34)ccc21
27 | -1 | -6 | 96* | 5 | 16 | -1 | O=C(Cn1c(=O)oc2cc(S(=O)(=O)N3CCc4ccccc43)ccc21)NC1CCCC1
28 | 9.0* | . | 7 | -1 | 18 | -12 | Cc1cccc(NS(=O)(=O)c2ccc3nc(-c4ccccc4)[nH]c3c2)c1C
29 | -1 | -8 | -3 | 1 | . | 6 | Cc1cccc(NS(=O)(=O)c2ccc3[nH]c(=O)oc3c2)c1C
30 | . | -6 | . | . | . | . | COCC(=O)Nc1ccc2c(c1)C(=O)N(C)C[C@@H](OC)[C@@H](C)CN(CC1CC1)[C@H](C)CO2
31 | 2 | 2 | 98* | -7 | 3 | 1 | O=C(CSCC(=O)N1CCCCC1)OCC(=O)c1c[nH]c2ccccc12
32 | -1 | -13 | 89* | 16 | 13 | 5 | O=C(COC(=O)CSCC(=O)N1CCCCC1)Nc1ccc(Cl)cc1
33 | . | -12 | . | . | . | . | C[C@@H](NC(=O)C[C@H]1C[C@H]2c3cc(NS(C)(=O)=O)ccc3O[C@H]2[C@@H](CO)O1)c1ccccc1
34 | 0 | -10 | . | 6 | . | 5 | CSc1nnc(SCC(=O)NC(=O)c2ccccc2)s1
35 | 1 | -10 | 97* | 4 | -2 | 1 | CSC(=O)CC(=O)NC(=O)c1ccccc1
36 | . | -1 | . | . | . | . | CC(C)NC(=O)N(C)C[C@@H]1Oc2ccc(NS(=O)(=O)c3ccc(Cl)cc3)cc2CC(=O)N([C@@H](C)CO)C[C@H]1C

3 entries drawn at random from the list so far, as already listed:
item | MC4R barr agon | Yeast UUG start | ALR H2O2 inh | MC4R antag cAMP | NALP1 inh | HDAC3 inhib | canonical_smiles
34 | 0 | -10 | . | 6 | . | 5 | CSc1nnc(SCC(=O)NC(=O)c2ccccc2)s1
35 | 1 | -10 | 97* | 4 | -2 | 1 | CSC(=O)CC(=O)NC(=O)c1ccccc1
32 | -1 | -13 | 89* | 16 | 13 | 5 | O=C(COC(=O)CSCC(=O)N1CCCCC1)Nc1ccc(Cl)cc1

Continuation.
item | MC4R barr agon | Yeast UUG start | ALR H2O2 inh | MC4R antag cAMP | NALP1 inh | HDAC3 inhib | canonical_smiles
37 | -1 | -10 | 87* | 1 | -11 | 8 | COc1cccc(C2Nc3ccccc3C(=O)N2O)c1O (stereo not given)
38 | . | -11 | . | . | . | . | C[C@H](NC(=O)C[C@@H]1CC[C@H](NC(=O)Cc2ccccn2)[C@H](CO)O1)c1ccccc1
39 | . | -5 | . | . | . | . | C[C@@H]1CN([C@@H](C)CO)S(=O)(=O)c2ccc(C#CC(C)(C)O)cc2O[C@H]1CN(C)C(=O)C1CCC1
40 | 2 | -12 | -11 | 0 | 25* | 0 | CCC(=O)NC(c1ccccc1)c1nc2ccccc2[nH]1 (stereo not given)
41 | -1 | -22 | -2 | 9 | 0 | 1 | CCc1ccc(NC(=O)CSc2nnc(-c3cnccn3)n2C)cc1
42 | -1 | -18 | 97* | 10 | 2 | 2 | Cn1c(SCC(=O)c2ccccc2)nnc1-c1cnccn1
43 | 0 | -15 | 99* | 13 | 14 | -2 | CN(C)c1ccc(NC(=O)CSc2nnc(-c3cnccn3)n2C)cc1
44 | -4 | -5 | 1 | 15 | 26* | -6 | CNC(=O)CSc1nnc(-c2cnccn2)n1C
45 | . | 4 | . | . | . | . | C[C@H](CO)N1C[C@H](C)[C@H](CN(C)C(=O)C2CCCCC2)OCCCC[C@H](C)Oc2ccc(NC(=O)C3CCCCC3)cc2C1=O
46 | . | -9 | . | . | . | . | CCNC(=O)C[C@H]1CC[C@@H]2[C@H](COc3ccc(NC(=O)Nc4c(C)noc4C)cc3C(=O)N2C)O1
47 | . | -8 | . | . | . | . | Cc1noc(C)c1NC(=O)N(C)C[C@@H]1Oc2ccc(NS(=O)(=O)c3c(C)noc3C)cc2C(=O)N([C@@H](C)CO)C[C@H]1C
48 | -2 | 1 | 90* | -15 | 0 | 4 | N#C/C(=C/c1ccc(O)c(O)c1)c1nc2ccccc2[nH]1
49 | 3 | 1 | -2 | -5 | 42 | -1 | CCOc1cc(/C=C(/C#N)c2nc3ccccc3[nH]2)ccc1Oc1ccc([N+](=O)[O-])cn1
50 | -1 | -9 | 2 | 2 | 2 | 5 | COc1cc(/C=C(/C#N)c2nc3ccccc3[nH]2)ccc1OCc1ccc(C(=O)O)o1

High-throughput results: PubChem, several laboratories
